Experiments:
Assay in all cases: Radiometric protein kinase assay (33PanQinase), Assay Condition A (thiol containing)
Assay type in all cases: biochemical
CDK12 wt/CycK = CDK12 wt/CycK (Homo sapiens (Human), UniProt Q9NYV4); conditions: thiol containing (1.2 mM DTT), ATP 0.3 μM
Experimental: (§1) The IC50 profile of test compounds was determined using three protein kinases.
(§2) The compounds were provided as pre-weighed powders in vials. The compounds were dissolved to 1×10^−02M by adding DMSO. 100 μl of each of the resulting stock solutions were transferred into column 2 of four 96 well “master plates”.
(§3) Prior to testing, the 1×10^−02M stock solutions in column 2 of the master plates were subjected to a serial, semi-logarithmic dilution using 100% DMSO as a solvent. […] Column 1 and 7 were filled with 100% DMSO as controls. Subsequently, 2×10 μl from each well of the serial diluted copy plates were aliquoted with a 96 channel pipettor into two identical sets of “compound dilution plates”.
(§4) In the process, 90 μl H2O were added to each well of a set of compound dilution plates. To minimize potential precipitation, the H2O was added to each plate only a few minutes before the transfer of the compound solutions into the assay plates. Each plate was shaken thoroughly, resulting in a “compound dilution plate/10% DMSO”.
(§5) For the assays, 5 μl solution from each well of the compound dilution plates/10% DMSO were transferred into the assay plates. The final volume of the assay was 50 μl. All compounds were tested at 10 final assay concentrations in the range from 1×10^−04M to 3×10^−09M, in singlicate. The final DMSO concentration in the reaction cocktails was 1% in all cases.
(§6) All protein kinases were expressed in Sf9 insect cells or in E. coli as recombinant GST-fusion proteins or His-tagged proteins, either as full-length or enzymatically active fragments. All kinases were produced from human cDNAs and purified by either GSH-affinity chromatography or immobilized metal. Affinity tags were removed from a number of kinases during purification. The purity of the protein kinases was examined by SDS-PAGE/Coomassie staining, the identity was checked by mass spectroscopy.
(§7) A radiometric protein kinase assay (^33PanQinase® Activity Assay) was used for measuring the kinase activity of the three protein kinases. All kinase assays were performed in 96-well FlashPlates™ from PerkinElmer (Boston, Mass., USA) in a 50 μl reaction volume. The reaction cocktail was pipetted in four steps in the following order: • 20 μl of assay buffer (standard buffer) • 5 μl of ATP solution (in H2O) • 5 μl of test compound (in 10% DMSO) • 20 μl enzyme/substrate mix
(§8) The reaction cocktails were incubated at 30° C. for 60 minutes. The reaction was stopped with 50 μl of 2% (v/v) H3PO4, plates were aspirated and washed two times with 200 μl 0.9% (w/v) NaCl. Incorporation of ^33Pi was determined with a microplate scintillation counter (Microbeta, Wallac). All assays were performed with a BeckmanCoulter/SAGIAN™ Core System.
(§9) The median value of the counts in column 1 (n=8) of each assay plate was defined as “low control”. This value reflects unspecific binding of radioactivity to the plate in the absence of a protein kinase but in the presence of the substrate. The median value of the counts in column 7 of each assay plate (n=8) was taken as the “high control”, i.e. full activity in the absence of any inhibitor. The difference between high and low control was taken as 100% activity.
(§10) As part of the data evaluation the low control value from a particular plate was subtracted from the high control value as well as from all 80 “compound values” of the corresponding plate. The residual activity (in %) for each well of a particular plate was calculated by using the following formula: Res. Activity (%)=100×[(cpm of compound−low control)/(high control−low control)]
(§11) The residual activities for each concentration and the compound IC50 values were calculated using Quattro Workflow V3.1.1 (Quattro Research GmbH, Munich, Germany). […] The fitting method used was a least-squares fit.

By UniProt entry, the sequences of proteins in these tests, tags left out. Where a name states a change or a piece, a line headed by the entry shows the natural chain unless it says otherwise.
UniProt Q9NYV4, whole entry: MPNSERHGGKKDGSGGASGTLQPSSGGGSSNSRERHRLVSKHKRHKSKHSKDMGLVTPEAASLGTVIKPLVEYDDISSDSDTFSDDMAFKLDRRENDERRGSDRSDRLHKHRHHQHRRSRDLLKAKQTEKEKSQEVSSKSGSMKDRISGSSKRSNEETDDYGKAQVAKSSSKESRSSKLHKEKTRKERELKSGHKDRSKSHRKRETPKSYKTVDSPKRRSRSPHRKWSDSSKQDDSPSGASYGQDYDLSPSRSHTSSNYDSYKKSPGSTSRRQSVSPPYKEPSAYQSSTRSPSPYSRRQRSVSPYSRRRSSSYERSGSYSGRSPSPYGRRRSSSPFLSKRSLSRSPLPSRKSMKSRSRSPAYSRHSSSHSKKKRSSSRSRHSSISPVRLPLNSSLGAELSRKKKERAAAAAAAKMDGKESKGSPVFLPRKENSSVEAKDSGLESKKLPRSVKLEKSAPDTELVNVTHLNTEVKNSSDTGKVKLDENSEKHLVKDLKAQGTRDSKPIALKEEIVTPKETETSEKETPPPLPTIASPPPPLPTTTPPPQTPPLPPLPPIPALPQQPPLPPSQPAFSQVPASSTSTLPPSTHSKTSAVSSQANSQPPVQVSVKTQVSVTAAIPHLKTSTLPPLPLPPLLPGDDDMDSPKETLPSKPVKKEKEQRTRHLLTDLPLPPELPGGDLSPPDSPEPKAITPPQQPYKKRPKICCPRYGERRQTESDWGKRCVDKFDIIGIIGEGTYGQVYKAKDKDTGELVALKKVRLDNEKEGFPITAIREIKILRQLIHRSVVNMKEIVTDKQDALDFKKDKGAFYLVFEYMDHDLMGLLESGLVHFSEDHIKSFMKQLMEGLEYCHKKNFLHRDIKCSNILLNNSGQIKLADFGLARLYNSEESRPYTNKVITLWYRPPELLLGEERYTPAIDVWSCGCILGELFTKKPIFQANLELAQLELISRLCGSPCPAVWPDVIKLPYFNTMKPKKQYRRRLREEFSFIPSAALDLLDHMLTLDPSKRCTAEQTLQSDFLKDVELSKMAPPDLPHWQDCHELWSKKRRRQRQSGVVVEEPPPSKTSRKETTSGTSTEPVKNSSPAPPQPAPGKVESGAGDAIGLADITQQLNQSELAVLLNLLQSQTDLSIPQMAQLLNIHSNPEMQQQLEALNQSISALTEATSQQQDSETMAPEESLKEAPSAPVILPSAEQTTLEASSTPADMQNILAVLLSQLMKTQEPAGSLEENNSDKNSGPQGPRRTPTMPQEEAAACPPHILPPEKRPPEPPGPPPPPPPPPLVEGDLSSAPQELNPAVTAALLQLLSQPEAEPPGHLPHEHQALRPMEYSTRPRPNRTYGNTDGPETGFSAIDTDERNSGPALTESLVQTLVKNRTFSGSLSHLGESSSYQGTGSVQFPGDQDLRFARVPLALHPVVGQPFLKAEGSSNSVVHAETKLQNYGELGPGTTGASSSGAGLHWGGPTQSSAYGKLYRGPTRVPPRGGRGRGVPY
UniProt P50613: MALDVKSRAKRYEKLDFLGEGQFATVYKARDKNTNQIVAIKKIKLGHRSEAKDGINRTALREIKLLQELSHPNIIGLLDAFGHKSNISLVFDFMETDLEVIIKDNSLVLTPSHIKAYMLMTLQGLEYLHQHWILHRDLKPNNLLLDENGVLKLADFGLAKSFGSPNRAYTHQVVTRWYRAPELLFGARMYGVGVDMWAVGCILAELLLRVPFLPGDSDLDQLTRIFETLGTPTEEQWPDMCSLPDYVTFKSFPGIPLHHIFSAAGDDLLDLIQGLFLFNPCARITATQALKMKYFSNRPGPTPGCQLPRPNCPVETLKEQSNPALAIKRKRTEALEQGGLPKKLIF

CDK2/CycA2 = CDK2/CycA2 (Homo sapiens (Human), UniProt P24941); conditions: thiol containing (1.2 mM DTT), ATP 0.3 μM
Experimental: as §1, §2, §3, §4, §5, §6, §7, §8, §9, §10, §11

CDK7/CycH/MAT1 = CDK7/CycH/MAT1 (Homo sapiens (Human), UniProt P50613)
Experimental: as §1, §2, §3, §4, §5, §6, §7, §8, §9, §10, §11

Structure (SMILES): C=CC(=O)Nc1ccc(C(=O)N2CCC[C@@H](Nc3ncc4ccc(C(=O)N(C)C)cc4n3)C2)cc1 [Example 12, (R)-2-((1-(4-acrylamidobenzoyl)piperidin-3-yl)amino)-N,N-dimethylquinazoline-7-carboxamide]
- IC50 (CDK12 wt/CycK): 1000 to 10000 nM
- IC50 (CDK2/CycA2): 10000 to 30000 nM
- IC50 (CDK7/CycH/MAT1): 30000 to 100000 nM

Structure (SMILES): CN(C)C/C=C/C(=O)Nc1ccc(C(=O)N2CC[C@@H](Nc3ncc4ccccc4n3)C2)cc1F [Example 68, (R,E)-4-(dimethylamino)-N-(2-fluoro-4-(3-(quinazolin-2-ylamino)pyrrolidine-1-carbonyl)phenyl)but-2-enamide]
- IC50 (CDK12 wt/CycK): 100 to 1000 nM
- IC50 (CDK2/CycA2): 1000 to 10000 nM
- IC50 (CDK7/CycH/MAT1): 100 to 1000 nM

Structure (SMILES): CN(C)C/C=C/C(=O)Nc1ccc(C(=O)N2CC[C@@H](Nc3ncc4cc(F)ccc4n3)C2)cc1 [Example 76, (R,E)-4-(dimethylamino)-N-(4-(3-((6-fluoroquinazolin-2-yl)amino)pyrrolidine-1-carbonyl)phenyl)but-2-enamide]
- IC50 (CDK12 wt/CycK): 1000 to 10000 nM
- IC50 (CDK2/CycA2): 1000 to 10000 nM
- IC50 (CDK7/CycH/MAT1): 1000 to 10000 nM

Structure (SMILES): Cc1cc(C(=O)N2CC[C@@H](Nc3ncc4ccccc4n3)C2)ccc1NC(=O)/C=C/CN(C)C [Example 83, (R,E)-4-(dimethylamino)-N-(2-methyl-4-(3-(quinazolin-2-ylamino)pyrrolidine-1-carbonyl)phenyl)but-2-enamide]
- IC50 (CDK12 wt/CycK): 1000 to 10000 nM
- IC50 (CDK2/CycA2): 1000 to 10000 nM
- IC50 (CDK7/CycH/MAT1): 1000 to 10000 nM

Structure (SMILES): COc1cc(NC(=O)/C=C/CN(C)C)ccc1C(=O)N1CC[C@@H](Nc2ncc3ccccc3n2)C1 [Example 85, (R,E)-4-(dimethylamino)-N-(3-methoxy-4-(3-(quinazolin-2-ylamino)pyrrolidine-1-carbonyl)phenyl)but-2-enamide]
- IC50 (CDK12 wt/CycK): 1000 to 10000 nM
- IC50 (CDK2/CycA2): 1000 to 10000 nM

Structure (SMILES): CN(C)C/C=C/C(=O)N(C)c1ccc(C(=O)N2CC[C@@H](Nc3ncc4ccccc4n3)C2)cc1 [Example 86, (R,E)-4-(dimethylamino)-N-methyl-N-(4-(3-(quinazolin-2-ylamino)pyrrolidine-1-carbonyl)phenyl)but-2-enamide]
- IC50 (CDK12 wt/CycK): 100 to 1000 nM
- IC50 (CDK2/CycA2): 1000 to 10000 nM
